Laboratory results: PubChem BioAssay AID1645860 (Buhrlage Lab, Dana-Farber Cancer Institute and Novartis …, 2021)
This is a selection; strong and weak results do not stand in their true shares. Some tests of the compounds listed are not included; inactive here does not mean inactive elsewhere. Calls of active or inactive are those of the source. Cut-off read from the data, not from the text of the source: active = inhibition above about 30%; inactive = the rest.

Sequences of proteins named here, by UniProt entry; tags and fusion partners are left off.
UniProt Q70CQ3, whole entry: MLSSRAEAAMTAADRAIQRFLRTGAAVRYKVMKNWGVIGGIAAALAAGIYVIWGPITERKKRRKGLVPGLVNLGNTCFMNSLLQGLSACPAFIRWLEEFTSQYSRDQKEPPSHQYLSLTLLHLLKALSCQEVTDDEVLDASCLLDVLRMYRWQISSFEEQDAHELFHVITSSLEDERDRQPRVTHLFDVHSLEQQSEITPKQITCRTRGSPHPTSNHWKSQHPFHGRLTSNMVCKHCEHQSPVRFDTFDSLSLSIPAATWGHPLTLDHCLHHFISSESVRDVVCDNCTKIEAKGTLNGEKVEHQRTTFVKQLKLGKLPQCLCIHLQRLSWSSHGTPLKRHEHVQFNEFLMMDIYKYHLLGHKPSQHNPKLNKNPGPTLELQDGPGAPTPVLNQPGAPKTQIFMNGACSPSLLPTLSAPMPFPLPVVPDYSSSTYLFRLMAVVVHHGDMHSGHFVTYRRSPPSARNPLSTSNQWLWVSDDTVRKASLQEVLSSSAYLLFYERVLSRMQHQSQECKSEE

The compounds below were run against Ubiquitin carboxyl-terminal hydrolase 30 (Homo sapiens) (UniProt Q70CQ3) (assay: inhibitors of human USP30 deubiquitinase (AID 1645860)). Conditions: purified USP30, Ub-rhodamine cleavage fluorescence; at 25 µM; active compounds read high.
For `O=C(NCC1(N2CCCCC2)CCCCC1)c1ccc2ccccc2c1`, the inhibition was inactive: -11.5%.
`O=C(NCC1(N2CCOCC2)CCCCC1)c1ccccc1F` was tested, and the inhibition was inactive: -3.6%.
With `Cc1c(C(=O)NCC2(N(C)C)CCCCC2)oc2ccccc12` the inhibition was inactive: -0.00466%.
For `Cc1c(C(=O)NCC2(N(C)C)CCCCC2)oc2ccc(F)cc12`, the inhibition was inactive: 9.34%.
`COc1cccc(C(=O)NCC2(N3CCCCC3)CCCCC2)c1` was tested, and the inhibition was inactive: -147%.
In the case of `COc1ccc(C(=O)NCC2(N3CCOCC3)CCCCC2)cc1`, the inhibition is reported as inactive: -7.93%.
In the case of `O=C(NCC1(N2CCCCC2)CCCCC1)c1ccc2c(c1)OCCO2`, the inhibition is reported as inactive: 13.4%.
